This is an account of results in patent publication US20080182834A1, “Multi-Nuclear Metal Complexes Partially Encapsulated by Cucurbit[7-12]Urils” (NEWSOUTH INNOVATIONS PTY LIMITED, priority 2004, published 2008).

One data set deals with female balb/c nude mice. Kind of data set: Maximum tolerated dose (MTD) in vivo. The conditions noted are these: intravenously in saline solution. The protocol:
Platinum complex BBR3571 and the association adduct of BBR3571 and unsubstituted cucurbit[7]uril were tested in vivo in female balb/c nude mice.

In data set [1] the test system is 2008 ovarian carcinoma cell line. Kind of data set: In vivo activity against subcutaneous 2008 ovarian carcinoma tumours in nude mice. The conditions noted are these: 2008 ovarian carcinoma s.c. in female balb/c nude mice; drug equivalence 1 (0.10 mg/kg free complex, 0.27 mg/kg adduct); doses on days 0, 4 and 8. An excerpt: The cytotoxic activity of the association adduct of BBR3571 and unsubstituted cucurbit[7]uril at a drug equivalence of 1 (equimolar amount) was compared to the free metal complex. The experiment was limited to the MTD of the free metal complex. Female balb/c nude mice were inoculated subcutaneously on the flank with cells from the 2008 ovarian carcinoma cell line. Once the tumours had reached a volume of approximately 100 mm^3 the mice were randomized into groups and administered either a saline solution of BBR3571 at MTD or a saline solution of the association adduct of unsubstituted cucurbit[7]uril and BBR3571 in an equimolar amount (0.27 mg/kg of the association adduct). The controls were administered either as saline or a saline solution of unsubstituted cucurbit[7]uril. Doses were administered on days 0, 4 and 8.

Regarding “{trans-diamminechloro(μ-spermidine)platinum(II)}chloride [BBR3571]”, the MTD in the data set with female balb/c nude mice came out at 0.1 mg/kg. Also, in data set [1], the “GDI (Growth Delay Index)” value worked out at 1.6 and the “TGI (Tumour Growth Index)” value stood at 48.5%.

Usually MTD stands for the largest dose that counted as tolerated.
